# Binding of CDR-mutated scFvs to a peptide of the spike HR2 region

From the AlphaSeq antibody data of Li et al. 2023 (doi:10.1038/s41467-023-39022-2), copy in the FLAb collection.

All variants were tested on one target, the spike HR2 peptide PDVDLGDISGINAS (SARS-CoV-2).

Parent: Ab-14, a human scFv built as VH, a (GGGGS)3 linker, VL. Only the CDRs of the light chain vary.
VH: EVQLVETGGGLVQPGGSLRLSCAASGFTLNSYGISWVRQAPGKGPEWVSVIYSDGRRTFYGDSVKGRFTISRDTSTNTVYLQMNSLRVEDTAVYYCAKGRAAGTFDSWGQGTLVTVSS
VL: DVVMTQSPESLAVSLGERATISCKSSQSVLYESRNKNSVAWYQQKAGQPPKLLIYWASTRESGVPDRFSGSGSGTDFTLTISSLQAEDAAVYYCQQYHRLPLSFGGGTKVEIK

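Designed CDR sequences, proposed from the first random library and measured here. Group labels follow the data file (Ctrl: baseline library sampled from a position-specific scoring matrix, with some repeated check sequences; Rand: our label for a block that the file lists under HC and that is probably the random mutants of the ten best first-round binders; GP: Gaussian process model; HC: hill climbing; Gen: genetic algorithm; Gibbs: Gibbs sampling; a sequence that several methods proposed may carry one label only). The scFvs were displayed on barcoded MATa yeast, the peptide on MATalpha yeast. The frequency of each diploid, read from paired DNA barcodes, reflects how well the two displayed proteins bind. Read counts were normalised to the haploid input and turned into Kd by a linear fit to BCL2-family pairs of known affinity, for each replicate. There are six technical replicates.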

Substitutions are numbered in sequence along the VL above, starting at 1 (not Kabat).
This list holds designs with at most six substitutions.
The read-out is the apparent dissociation constant on a log10 scale (nM): the lower, the stronger.
A mean of the replicates is given; it leaves out those without a signal.
Where no diploid with the target was found in that replicate, the entry reads "nd": below detection, most likely a poor binder, though not proof of it.
Entries are sorted by rising average, undetected variants last.
Of ten entries with the parent sequence, four were seen in most replicates (averages 0.34 to 2.37), three in one and three in none, so single entries are noisy.
Background: pairings of all light chain designs with three empty control strains gave a value in 4% of cases (median 2.64, 5th percentile 1.59). Values in that range, when seen in few replicates, are hard to tell from nonspecific mating. For each scFv, signals with the empty controls are counted beside the result.
The range of this assay differs from that of the first round, and the authors advise against merging the two.
The authors averaged sequences with at least three values out of six and counted those with two or fewer as poor binders.

Variant S25L+S26P+V29M+W56Q [GP_Gen] gave -0.38, -0.38, -0.71, -0.82, -0.72, -0.49 (mean -0.58; controls 1 of 18).
Variant K24Y+S25L+L30Q+W56S+S62Y+S103A [GP_Gibbs] gave -0.14, -0.03, -0.05, -0.58, -0.53, -0.15 (mean -0.24; controls 0 of 18).
Variant S25H+S26E+Q27E+S28G+L30W+W56N [GP_Gibbs] gave -0.13, -0.06, -0.31, -0.28, -0.45, -0.15 (mean -0.23; controls 2 of 18).
Variant K24H+S25V+Q27P+L30E+W56N+T59S [GP_HC] gave 0.00, -0.14, -0.30, -0.23, -0.36, -0.18 (mean -0.20; controls 0 of 18).
Variant S25L+S26P+V29F+W56A [GP_Gen] gave -0.06, -0.31, -0.08, -0.31, -0.29, -0.15 (mean -0.20; controls 2 of 18).
Variant K24F+S25L+W56N+S62Q [GP_Gen] gave -0.07, -0.13, -0.21, -0.34, -0.27, 0.05 (mean -0.16; controls 1 of 18).
Variant S25L+Q27G+V29W+W56N+T59Q [GP_Gen] gave 0.23, 0.08, -0.20, -0.28, -0.19, 0.05 (mean -0.05; controls 1 of 18).
Variant S25L+S26R+V29T+K36P+W56S [GP_HC] gave 0.45, 0.00, -0.30, -0.60, -0.02, 0.17 (mean -0.05; controls 0 of 18).
Variant S25L+Q27F+W56E [GP_Gen] gave 0.14, 0.12, -0.09, -0.23, -0.11, -0.11 (mean -0.05; controls 1 of 18).
Variant S25L+W56D+E61F [GP_Gen] gave 0.10, -0.21, 0.00, -0.03, -0.07, -0.03 (mean -0.04; controls 1 of 18).
Variant S25L+W56N+E61L+S62Q [GP_Gen] gave 0.09, 0.13, -0.09, -0.09, 0.08, 0.15 (mean 0.05; controls 4 of 18).
Variant S25L+V29E+N35V+W56G [GP_HC] gave 0.10, -0.01, -0.10, -0.05, 0.25, 0.10 (mean 0.05; controls 2 of 18).
Variant S25I+N37T+W56N [Rand] gave -0.09, -0.03, -0.01, 0.11, 0.05, 0.26 (mean 0.05; controls 1 of 18).
Variant S25V+V29E+W56E+Q96D [GP_Gen] gave 0.47, 0.04, -0.02, -0.14, -0.10, 0.09 (mean 0.06; controls 0 of 18).
Variant S25V+L30D+W56D [GP_Gen] gave 0.27, 0.17, 0.12, -0.50, 0.50, -0.15 (mean 0.07; controls 0 of 18).
Variant Q27M+L30K+Y31F+W56D [GP_HC] gave 0.58, -0.01, -0.04, -0.09, 0.00, 0.15 (mean 0.10; controls 0 of 18).
Variant Y31V+K36S+W56D+H98S [Ctrl] gave 0.12, 0.18, 0.05, 0.03, 0.06, 0.26 (mean 0.12; controls 0 of 18).
Variant S25L+S26E+S28F+L30E+W56H+E61L [GP_Gibbs] gave -0.01, 0.57, 0.13, -0.04, 0.04, 0.20 (mean 0.15; controls 0 of 18).
Variant Q27F+V29E+Y31F+W56D [GP_HC] gave 0.16, 0.37, 0.30, 0.03, 0.02, 0.31 (mean 0.20; controls 0 of 18).
Variant S25V+V29E+W56N+A57G [GP_Gen] gave 0.25, -0.02, 0.08, 0.15, 0.70, 0.25 (mean 0.23; controls 0 of 18).
Variant Q27I+V29Y+L30Q+Y31N+W56E [GP_HC] gave 0.34, -0.13, 0.07, 0.63, 0.72, 0.16 (mean 0.30; controls 0 of 18).
Variant S25L+V29Q+E32D+W56N [GP_HC] gave 0.52, 0.34, 0.23, 0.10, 0.32, 0.40 (mean 0.32; controls 3 of 18).
Variant S25F+N35T+W56N+Q96C [GP_HC] gave 0.18, 0.40, 0.29, 0.27, 0.52, 0.38 (mean 0.34; controls 3 of 18).
Variant L30V+N35S+W56Q [Ctrl] gave 0.49, 0.45, 0.70, 0.14, 0.24, 0.23 (mean 0.37; controls 1 of 18).
Variant S25L+S26M+W56H+T59E+S62D [GP_HC] gave 0.54, 0.32, 0.34, 0.24, 0.52, 0.49 (mean 0.41; controls 0 of 18).
Variant S25I+S26M+W56N+E61M [GP_Gen] gave 1.13, 0.52, 0.24, 0.31, -0.10, 0.61 (mean 0.45; controls 0 of 18).
Variant S25V+V29M+R34G+N35T+W56N+T59S [GP_HC] gave 0.74, 0.62, 0.47, 0.82, 0.32, 0.32 (mean 0.55; controls 1 of 18).
Variant S25Q+W56M+T59I [GP_HC] gave 1.14, 0.88, 0.92, 0.52, 0.74, 0.70 (mean 0.82; controls 0 of 18).
Variant V29Y+Y31I+W56E [GP_HC] gave 1.09, 0.82, nd, 1.61, 0.49, 0.66 (mean 0.93; controls 0 of 18).
Variant R34E+A57G+Q95D [Ctrl] gave 0.33, nd, 1.25, 1.38, nd, 1.14 (mean 1.03; controls 0 of 18).
Variant K24V+S25M+L102I [Ctrl] gave 0.85, 1.05, 1.21, 1.09, 1.23, 0.94 (mean 1.06; controls 1 of 18).
Variant Y31E+E61L [Ctrl] gave 1.39, 1.06, 1.29, 1.33, 1.07, 1.15 (mean 1.22; controls 0 of 18).
Variant Y31D+W56R [Ctrl] gave 1.61, 1.79, 1.20, 1.46, 1.15, 1.09 (mean 1.38; controls 0 of 18).
Variant K24Q+S26G+Y31G [Ctrl] gave nd, 1.95, nd, 1.44, nd, 1.32 (mean 1.57; controls 2 of 18).
Variant S33F+K36H+H98E [Ctrl] gave nd, nd, nd, nd, nd, 1.88 (controls 0 of 18).
Variant K24R+S62D [Ctrl] gave 2.21, 1.83, 1.94, 1.54, 3.02, 1.89 (mean 2.07; controls 1 of 18).
Variant K24H+Q27P+A40P+W56N+S58I [Rand] gave nd, nd, nd, nd, nd, nd (controls 0 of 18).
Variant V29W+S33E+S103P [Ctrl] gave nd, nd, nd, nd, nd, nd (controls 0 of 18).
Variant K24R+S26L+N37P+W56H+S62D [Rand] gave nd, nd, nd, nd, nd, nd (controls 0 of 18).
Variant L100V [Ctrl] gave nd, nd, nd, nd, nd, nd (controls 0 of 18).

The first 2 entries again:

With S25L+S26P+V29M+W56Q [GP_Gen] the result was -0.38, -0.38, -0.71, -0.82, -0.72, -0.49 (mean -0.58; controls 1 of 18).
With K24Y+S25L+L30Q+W56S+S62Y+S103A [GP_Gibbs] the result was -0.14, -0.03, -0.05, -0.58, -0.53, -0.15 (mean -0.24; controls 0 of 18).